# Measured values taken from US20160214996A1, “MACROCYCLIC COMPOUNDS FOR THE TREATMENT OF PROLIFERATIVE DISEASES” (CS Pharmasciences, Inc., priority 2013, published 2016).
# The chains behind the UniProt entries cited, without tags or fusion partners. Where a name states a change or a piece, a line headed by the entry shows the natural chain unless it says otherwise. Residues count along the entry.
# UniProt Q9UM73, 19-1620 limits assumed: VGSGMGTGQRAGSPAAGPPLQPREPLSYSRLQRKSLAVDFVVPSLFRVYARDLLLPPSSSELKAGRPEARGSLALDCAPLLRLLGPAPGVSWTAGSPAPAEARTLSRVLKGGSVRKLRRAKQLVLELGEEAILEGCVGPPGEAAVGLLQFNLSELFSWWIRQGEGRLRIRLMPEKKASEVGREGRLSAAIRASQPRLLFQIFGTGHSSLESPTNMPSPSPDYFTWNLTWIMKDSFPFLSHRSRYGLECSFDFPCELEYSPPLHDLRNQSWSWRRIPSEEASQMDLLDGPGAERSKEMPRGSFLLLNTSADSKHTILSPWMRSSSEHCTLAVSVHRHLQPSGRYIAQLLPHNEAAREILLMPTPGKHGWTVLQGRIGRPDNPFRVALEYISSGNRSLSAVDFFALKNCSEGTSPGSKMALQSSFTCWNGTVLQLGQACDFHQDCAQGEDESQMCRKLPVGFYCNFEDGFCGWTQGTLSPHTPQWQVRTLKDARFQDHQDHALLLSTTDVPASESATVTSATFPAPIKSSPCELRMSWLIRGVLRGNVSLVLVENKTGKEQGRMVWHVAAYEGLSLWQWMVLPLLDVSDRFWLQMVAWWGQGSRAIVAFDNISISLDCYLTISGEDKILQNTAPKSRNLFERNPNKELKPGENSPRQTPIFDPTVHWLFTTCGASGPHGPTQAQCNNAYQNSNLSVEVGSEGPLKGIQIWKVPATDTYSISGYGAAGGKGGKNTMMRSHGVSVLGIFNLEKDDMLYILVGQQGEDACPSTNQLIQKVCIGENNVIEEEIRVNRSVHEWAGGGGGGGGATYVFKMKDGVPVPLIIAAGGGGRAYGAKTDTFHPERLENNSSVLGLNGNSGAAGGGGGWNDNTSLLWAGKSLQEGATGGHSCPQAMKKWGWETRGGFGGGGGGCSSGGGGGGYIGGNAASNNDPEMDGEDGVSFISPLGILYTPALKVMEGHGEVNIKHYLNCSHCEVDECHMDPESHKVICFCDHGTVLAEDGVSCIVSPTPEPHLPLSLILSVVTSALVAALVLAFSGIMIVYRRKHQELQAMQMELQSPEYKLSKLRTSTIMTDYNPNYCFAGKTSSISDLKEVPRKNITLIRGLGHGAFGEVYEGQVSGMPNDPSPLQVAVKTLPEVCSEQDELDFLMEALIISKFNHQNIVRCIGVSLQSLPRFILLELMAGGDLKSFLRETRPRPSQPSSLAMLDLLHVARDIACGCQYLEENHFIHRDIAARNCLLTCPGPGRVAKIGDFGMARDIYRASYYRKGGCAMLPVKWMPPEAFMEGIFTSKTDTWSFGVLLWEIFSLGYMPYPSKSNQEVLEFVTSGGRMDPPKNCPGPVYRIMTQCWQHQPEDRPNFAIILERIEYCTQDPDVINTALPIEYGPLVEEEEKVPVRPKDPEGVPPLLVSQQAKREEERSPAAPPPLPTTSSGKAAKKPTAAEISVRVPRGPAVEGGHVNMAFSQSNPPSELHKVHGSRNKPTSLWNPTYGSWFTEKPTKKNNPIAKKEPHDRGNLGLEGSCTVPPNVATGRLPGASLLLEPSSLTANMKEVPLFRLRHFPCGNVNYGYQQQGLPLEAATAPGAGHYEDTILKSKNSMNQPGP
# UniProt Q9UM73, 19-1620 L1196M limits assumed: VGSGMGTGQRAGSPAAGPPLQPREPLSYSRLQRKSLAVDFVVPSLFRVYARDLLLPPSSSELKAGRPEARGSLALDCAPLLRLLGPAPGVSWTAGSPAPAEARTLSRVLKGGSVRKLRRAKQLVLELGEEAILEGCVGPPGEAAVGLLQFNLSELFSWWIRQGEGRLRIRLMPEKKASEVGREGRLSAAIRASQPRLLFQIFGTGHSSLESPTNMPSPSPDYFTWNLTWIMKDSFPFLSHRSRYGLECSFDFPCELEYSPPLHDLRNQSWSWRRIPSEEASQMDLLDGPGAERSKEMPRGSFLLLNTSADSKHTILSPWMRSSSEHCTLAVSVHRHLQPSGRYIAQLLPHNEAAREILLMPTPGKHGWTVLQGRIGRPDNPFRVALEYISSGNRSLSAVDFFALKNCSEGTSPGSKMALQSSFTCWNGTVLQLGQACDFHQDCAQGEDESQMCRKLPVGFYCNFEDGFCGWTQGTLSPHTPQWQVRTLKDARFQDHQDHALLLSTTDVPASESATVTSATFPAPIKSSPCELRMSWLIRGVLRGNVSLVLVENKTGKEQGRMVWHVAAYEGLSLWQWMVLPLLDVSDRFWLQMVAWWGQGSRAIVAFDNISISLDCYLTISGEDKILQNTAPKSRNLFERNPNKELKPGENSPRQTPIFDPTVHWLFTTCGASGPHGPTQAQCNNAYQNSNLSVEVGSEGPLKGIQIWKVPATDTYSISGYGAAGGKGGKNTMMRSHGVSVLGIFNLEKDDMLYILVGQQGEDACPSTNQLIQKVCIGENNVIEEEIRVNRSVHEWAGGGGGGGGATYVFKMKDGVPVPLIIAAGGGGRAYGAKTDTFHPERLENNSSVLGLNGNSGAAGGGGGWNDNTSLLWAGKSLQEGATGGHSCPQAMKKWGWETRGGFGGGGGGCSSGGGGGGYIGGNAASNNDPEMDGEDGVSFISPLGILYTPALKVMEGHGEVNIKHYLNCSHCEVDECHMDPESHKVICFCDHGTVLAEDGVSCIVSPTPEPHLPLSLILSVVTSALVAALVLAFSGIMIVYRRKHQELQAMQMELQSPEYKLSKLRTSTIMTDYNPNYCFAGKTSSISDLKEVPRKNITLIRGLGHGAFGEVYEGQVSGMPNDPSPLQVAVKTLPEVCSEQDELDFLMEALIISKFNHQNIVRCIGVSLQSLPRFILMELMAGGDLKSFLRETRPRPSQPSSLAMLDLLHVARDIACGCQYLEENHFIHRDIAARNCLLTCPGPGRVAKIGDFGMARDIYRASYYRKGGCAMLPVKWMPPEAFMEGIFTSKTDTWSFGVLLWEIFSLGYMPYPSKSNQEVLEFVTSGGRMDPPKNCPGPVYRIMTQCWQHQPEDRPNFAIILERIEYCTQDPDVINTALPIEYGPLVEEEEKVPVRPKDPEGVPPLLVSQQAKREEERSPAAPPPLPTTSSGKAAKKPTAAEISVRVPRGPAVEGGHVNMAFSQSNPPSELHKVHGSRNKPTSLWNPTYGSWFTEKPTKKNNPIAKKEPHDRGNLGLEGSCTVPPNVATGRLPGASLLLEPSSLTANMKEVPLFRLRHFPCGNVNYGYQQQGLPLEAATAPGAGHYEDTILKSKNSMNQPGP
# Experiments:
# ALK L1196M = ALK L1196M (Homo sapiens, UniProt Q9UM73, L1196M); assay: ALK L1196M standard HTRF enzyme assay; type: biochemical; details: read-out: IC50 (nM) ALK_L1196M, 0.15 nM ALK L1196M, 30 μM ATP, 60 minutes at room temperature
# ALK wild type = ALK wild type (Homo sapiens, UniProt Q9UM73); assay: ALK wild type standard HTRF enzyme assay; type: biochemical; details: read-out: IC50 (nM) ALK_wt, 0.5 nM ALK wild type, 30 μM ATP, 90 minutes at room temperature
SMILES,IC50 (ALK L1196M),IC50 (ALK wild type)
"CC1Oc2cc(cnc2N)-c2c(nn(C)c2C#N)OCCOc2ccc(F)cc21 (single isomer, unassigned) [Compound 13a]",54 nM,1.4 nM
"CC1Oc2cc(cnc2N)-c2c(nn(C)c2C#N)OCCOc2ccc(F)cc21 (single isomer, unassigned) [Compound 13b]",4470 nM,2270 nM
